Results: ChEMBL document CHEMBL1131555 (Bioorg Med Chem Lett, 1998)

Columns and labels:
Progesterone receptor [1] = molecular target: T1, Progesterone receptor (Homo sapiens, UniProt P06401)
T1 sequence (P06401 whole entry): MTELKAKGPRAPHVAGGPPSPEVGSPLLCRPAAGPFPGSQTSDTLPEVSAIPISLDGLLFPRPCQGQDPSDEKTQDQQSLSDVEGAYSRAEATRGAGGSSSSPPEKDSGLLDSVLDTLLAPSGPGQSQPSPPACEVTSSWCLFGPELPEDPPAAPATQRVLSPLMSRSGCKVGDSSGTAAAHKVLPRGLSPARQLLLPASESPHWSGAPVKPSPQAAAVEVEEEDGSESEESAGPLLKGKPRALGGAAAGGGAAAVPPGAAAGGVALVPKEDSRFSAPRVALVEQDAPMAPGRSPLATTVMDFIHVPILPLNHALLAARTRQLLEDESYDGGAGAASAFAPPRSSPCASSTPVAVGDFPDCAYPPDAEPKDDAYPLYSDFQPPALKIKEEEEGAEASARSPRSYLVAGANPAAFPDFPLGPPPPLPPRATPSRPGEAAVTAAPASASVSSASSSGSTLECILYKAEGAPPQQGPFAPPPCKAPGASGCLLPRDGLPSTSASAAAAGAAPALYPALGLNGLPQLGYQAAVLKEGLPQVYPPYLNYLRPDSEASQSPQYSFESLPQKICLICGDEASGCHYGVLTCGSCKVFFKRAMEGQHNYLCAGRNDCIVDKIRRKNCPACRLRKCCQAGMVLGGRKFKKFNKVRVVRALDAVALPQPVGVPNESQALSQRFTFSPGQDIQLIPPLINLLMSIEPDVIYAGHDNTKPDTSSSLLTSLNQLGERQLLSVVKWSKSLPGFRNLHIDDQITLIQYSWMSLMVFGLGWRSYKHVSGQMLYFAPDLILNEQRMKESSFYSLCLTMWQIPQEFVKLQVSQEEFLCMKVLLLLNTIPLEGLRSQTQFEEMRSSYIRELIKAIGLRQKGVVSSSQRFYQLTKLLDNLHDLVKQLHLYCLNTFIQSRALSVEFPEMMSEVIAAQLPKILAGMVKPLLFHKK

Progesterone receptor [2] = molecular target: T1, Progesterone receptor; remark: listed apart in the source
Progesterone receptor [3] = molecular target: T1, Progesterone receptor; remark: listed apart in the source

EC50 (Progesterone receptor [1]): 9.3 nM
Ki (Progesterone receptor [2]): 3.5 nM
EC50 (Progesterone receptor [3]): > 10000 nM
SMILES: CCCCC1Oc2ccc(OC)cc2-c2ccc3c(c21)C(C)=CC(C)(C)N3 (stereo not drawn)
